The chains behind the UniProt entries cited, without tags or fusion partners. Residues count along the entry.
UniProt Q9Y5Z0, 63-473: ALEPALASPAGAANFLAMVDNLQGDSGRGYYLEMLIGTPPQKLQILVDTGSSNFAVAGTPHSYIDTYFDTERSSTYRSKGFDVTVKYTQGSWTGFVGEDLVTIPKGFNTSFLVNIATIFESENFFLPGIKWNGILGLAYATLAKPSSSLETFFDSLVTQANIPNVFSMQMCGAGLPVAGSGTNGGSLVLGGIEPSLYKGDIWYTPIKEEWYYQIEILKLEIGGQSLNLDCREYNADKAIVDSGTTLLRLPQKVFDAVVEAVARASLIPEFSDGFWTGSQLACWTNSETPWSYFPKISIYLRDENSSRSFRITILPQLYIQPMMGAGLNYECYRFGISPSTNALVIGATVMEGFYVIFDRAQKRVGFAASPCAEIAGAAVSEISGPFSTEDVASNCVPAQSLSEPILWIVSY
UniProt P56817, 46-457: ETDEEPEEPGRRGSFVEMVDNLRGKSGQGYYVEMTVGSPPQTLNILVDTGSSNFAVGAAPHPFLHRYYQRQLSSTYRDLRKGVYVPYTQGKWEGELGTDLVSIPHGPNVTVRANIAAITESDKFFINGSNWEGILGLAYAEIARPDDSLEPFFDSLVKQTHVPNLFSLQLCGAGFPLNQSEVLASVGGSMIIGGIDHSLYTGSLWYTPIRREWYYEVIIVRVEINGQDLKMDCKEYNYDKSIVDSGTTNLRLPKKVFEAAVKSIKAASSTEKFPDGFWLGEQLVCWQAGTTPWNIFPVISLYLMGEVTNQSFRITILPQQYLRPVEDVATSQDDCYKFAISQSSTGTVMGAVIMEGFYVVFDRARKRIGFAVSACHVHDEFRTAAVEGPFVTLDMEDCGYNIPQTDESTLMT

According to patent US9163011B2, “Oxazine derivatives and their use in the treatment of disease” (NOVARTIS AG, priority 2011, dated 2015):

Key:
Human BACE-2 = Human BACE-2 (Homo sapiens (Human), UniProt Q9Y5Z0); test: Test 2: Inhibition of Human BACE-2; type: biochemical; conditions: recombinant BACE-2, pH 4.5, 1 hour preincubation
Protocol: Test 2: Inhibition of Human BACE-2
(§1) Recombinant BACE-2 (extracellular domain, expressed in baculovirus and purified using standard methods) at 0.1 to 1 nM concentrations is incubated with the test compound at various concentrations for 1 hour at room temperature in 100 mM acetate buffer, pH 4.5, containing 0.1% CHAPS. Activity was measured using a final concentration of 3 μM of the fluorescence-quenched substrate Q-C(HSO3)-Ile-Asp-Leu-Ala-Val-Leu-Asp-HN—CH2—CH2-Mca, where Q=2-nitro-5-amino benzoic acid and Mca=7-methoxy-4-coumarinyl acetic acid. Catalytic turnover was monitored in a Spectramax Gemini fluorescence plate reader (Molecular Devices) in black 96-well microplates using excitation/emission wavelength of 325 nm and 400 nm, respectively. Fluorescence increase was followed for 15 min, in 1 minute's intervals. The fluorescence/time slopes were calculated from duplicate wells and from wells without inhibitor and the IC50 values were calculated using a logistic 4-parameter model.

Human BACE-1 = Human BACE-1 (Homo sapiens (Human), UniProt P56817); test: Test 1: Inhibition of Human BACE-1; type: biochemical; conditions: recombinant BACE-1, pH 4.5, 1 hour preincubation
Protocol: Test 1: Inhibition of Human BACE-1
as §1, with “BACE-1” for “BACE-2”

| Structure (SMILES) | IC50 (Human BACE-2) | IC50 (Human BACE-1) |
| --- | --- | --- |
| COCC[C@]1(c2nc(NC(=O)c3ncc(C#N)cc3C)ccc2F)N=C(N)OCC1(F)F [Example 4, 5-Cyano-3-methyl-pyridine-2-carboxylic acid {6-[(R)-2-amino-5,5-difluoro-4-(2-methoxy-ethyl)-5,6-dihydro-4H-[1,3]oxazin-4-yl]-5-fluoro-pyridin-2-yl}-amide] | 0.58 µM | 0.1 µM |
| COCC[C@@]1(c2nc(NC(=O)c3ncc(C#N)cc3C)ccc2F)N=C(N)OCC1(F)F [Example 5] | > 10 µM | > 10 µM |
| C[C@]1(c2nc(NC(=O)c3ncc(C(F)(F)F)cc3Cl)ccc2F)N=C(N)OCC1(F)F [Example 7, 3-Chloro-5-trifluoromethyl-pyridine-2-carboxylic acid [6-((R)-2-amino-5,5-difluoro-4-methyl-5,6-dihydro-4H-[1,3]oxazin-4-yl)-5-fluoro-pyridin-2-yl]-amide] | – | 0.035 µM |
